“And” between values parts separate entries of the source, which are not always exact repeats. Identical values can stand only once.
Key:
[1] = system: Meth A tumor; experiment: Schedule dependence in Meth A, Tables 5(A) and 5(B); format: in vivo, mice; details: for Number deaths/total treated: i.v. QD×9
Experimental: Unmodified IL-2 and PEG (7,000 MW) modified IL-2 (having an apparent molecular weight of 160 kD) were administered to mice who were transplanted with one of three tumor types; Meth A; B 16 melanoma; and Pan-02. The details are more specifically set out in Zimmerman et al., 1989, Cancer Research, 49:6521-6528 which is hereby incorporated by reference in its entirety.
The Meth A model was investigated initially because it was known to be sensitive to IL-2 under a variety of protocols, probably due to the tumor's immunogenic nature. Table 5(A) presents the results of dose-response studies in which unmodified IL-2 was given i..v. once daily for 9 days (QD×9). The maximum dose administered was 12.5 mg/kg/dose (112.5 mg/kg total dose) due to solubility limitations of the IL-2 and iv dosing volume restrictions. This dose level was near the maximum tolerated dose, however, as 1/10 hosts died due to treatment. Complete regressions at the s.c. site of injection were obtained in 3/10 and 4/10 of the animals in the 2 highest dose groups. Further, there were modest dose-dependent anti-tumor effects observed at the 2 lower dose levels, as shown by the TIC % (Table 5(A)).
(§1) PEG modified IL-2 (160 kD apparent molecular weight) was also administered to the mice. As shown in Table 5(B), four different treatment schedules were used: Q7D×2, Q4D×3, Q3D×4, and Q2D×5. The 3 total dose levels of 50, 25 or 12.5 mg/kg PEG-IL-2 were based on preliminary single dose studies. A single i.v. dose of PEG-IL-2 at 50, 25 or 12.5 mg/kg was lethal in 5/5, 2/5, or 0/5 Meth A bearing mice, respectively. When these same total doses were divided and delivered by the various schedules, the toxicity of the treatments was schedule dependent. […] The other combinations of dose and schedule were not lethal, with the exception of the 25 mg/kg dose on the Q2D×5 schedule (Table 5(B)). As discussed below, this dependence on the frequency of administration to produce the lethality is related to the minimum plasma concentration of L-2 attained between doses (i.e., the trough).
^a Therapy was initiated 7 days after tumor implant, i.v., daily for
days. Five animals/group/experiment.
^b T/C % calculated as the mean tumor volume of treated animals on da
21/mean tumor volume of control animals on day 21, × 100.
^c Treatmentcaused deaths.
^d Complete regressions at the s.c. site of tumor inoculation were
Analysis of Covanance, p set at 0.05.
^f PEGIL-2 was administered i.v. starting 7 days after tumor
inoculation, on the schedules shown. The doses were appropriately divided
in order to deliver the same total dose on the various schedules.

[2] = system: Meth A tumor; experiment: Meth A: effect of IL-2 peak serum concentration, PEG-IL-2 given concurrently with IL-2, Table 2; format: in vivo, mice
Experimental: Another experiment was performed to determine the effect of IL-2 peak serum concentration on therapeutic index. 160 kD PEG-IL-2 was administered concurrently with IL-2 at the doses indicated below in Table 2.
* PEGIL-2: 25 mg/kg (75 mg/m^2) or 12.5 mg/kg (37.5 mg/m^2) total
* Proleukin: 12.5 mg/kg (37.5 mg/m^2) or 7.5 mg/kg (22.5 mg/m^2)
given simultaneously with PEGIL-2.

[3] = system: Meth A tumor; experiment: Meth A tumor mice, one bolus dose of IL-2 or PEG-IL-2 (peak height and shape of clearance curve), Table 1; format: in vivo
Experimental: Unmodified IL-2 and PEG modified IL-2 were administered to mice who were transplanted with a Meth A tumor. The technical details for the materials and methods are similar to those specifically set out in Zimmerman et al., 1989, Cancer Research, 49:6521-6528 which is hereby incorporated by reference in its entirety.
The purpose of this experiment was to define the peak height and shape of the IL-2 blood concentration curve. Unmodified IL-2 (IL-2) and PEG modified IL-2 (having apparent molecular weights of 95 kD and 160 kD) were given to the mice in one bolus dose. […] Consequently, one can determine the effect of dose and duration by administering IL-2 and PEG-IL-2 molecules that will remain in the body for varying lengths of time.
as §1

[4] = system: rat fibrosarcoma; experiment: Rat subcutaneous fibrosarcoma anti-tumor efficacy and toxicity; format: in vivo, Fisher rats; details: for anti-tumor effect, computer-driven infusion versus single bolus PEG-IL-2: IL-2 48 hours infusion
Experimental: Four groups of Fisher rats were prepared for the experiment with 4 animals per group as follows:
Total IL-2 dose delivered was 38.4 mg/kg over 48 hours.
Group C: 1.6 mg/kg bolus dose PEG-IL-2 group.
Surgery was performed on all animals in all 4 groups one day prior to the infusions or bolus dose injections. Cannulas were inserted into the femoral vein for infusion and into the jugular vein for blood sampling. Teflon jackets were fitted to the rats to channel the tubing into the pump apparatus and to prevent the animals from dislodging the cannulas. On this same day (one day prior to therapeutic/sham treatment) animals also received fibrosarcoma tumor implants as described below.
The rat fibrosarcoma is a spontaneous solid tumor which is passed as a tumor brei on a bimonthly basis. Tumor brei was maintained frozen in liquid nitrogen in sterile tissue culture medium (RPMI 1640+20% FCS+10% DMSO). A tumor cycle was initiated by thawing a vial of tumor brei and injecting 0.1 ml subcutaneously in the flank of 150 g female Fischer rats. Tumors were passed a minimum of 2 times from frozen before being used in an experiment. A tumor cycle is defined as no greater than 20 passages after which a new vial from the original stock brei is thawed and the cycle restarted. Tumor brei for passage was prepared by excising a 14-18 day tumor, mincing it into ~1 mm^3 pieces and implanting 0.1 ml brie SC in the flank.
The effects of therapy on the rat subcutaneous fibrosarcoma were evaluated by measuring tumor volume in 2 perpendicular directions (L×W^2)2 at selected times over 21-28×(7, 10, 14+21) days.

[5] = PEG 12.5 mg/kg total, i.v., Q7D×2
[6] = PEG 25 mg/kg total, i.v., Q7D×2

160 kD PEG IL-2: PEG (7,000 MW) modified IL-2 having an apparent molecular weight of 160 kD
Complete regressions ([1]; 12.5 mg/kg total, i.v. Q2D×5): 0/5
T/C % ([1]; 12.5 mg/kg total, i.v. Q2D×5): 20.3%
Complete regressions ([1]; 12.5 mg/kg total, i.v. Q3D×4): 2/5
T/C % ([1]; 12.5 mg/kg total, i.v. Q3D×4): 14.1%
Complete regressions ([1]; 12.5 mg/kg total, i.v. Q4D×3): 0/10
T/C % ([1]; 12.5 mg/kg total, i.v. Q4D×3): 56.3%
Complete regressions ([1]; 12.5 mg/kg total, i.v. Q7D×2): 3/10
T/C % ([1]; 12.5 mg/kg total, i.v. Q7D×2): 17.9%
Complete regressions ([1]; 25 mg/kg total, i.v. Q3D×4): 2/5
T/C % ([1]; 25 mg/kg total, i.v. Q3D×4): 10.5%
Complete regressions ([1]; 25 mg/kg total, i.v. Q4D×3): 2/10
T/C % ([1]; 25 mg/kg total, i.v. Q4D×3): 23.9%
Complete regressions ([1]; 25 mg/kg total, i.v. Q7D×2): 8/10
T/C % ([1]; 25 mg/kg total, i.v. Q7D×2): 7.6%
toxicity by schedule ([1]; 50 mg/kg total): toxicity was observed only on the Q7D×2 and Q2D×5 schedules
Complete regressions ([1]; 50 mg/kg total, i.v. Q3D×4): 0/5
T/C % ([1]; 50 mg/kg total, i.v. Q3D×4): 7.6%
Complete regressions ([1]; 50 mg/kg total, i.v. Q4D×3): 2/10
T/C % ([1]; 50 mg/kg total, i.v. Q4D×3): 17.4%
Complete regressions ([1]; 50 mg/kg total, i.v. Q7D×2): 5/6
T/C % ([1]; 50 mg/kg total, i.v. Q7D×2): 49%
anti-tumor efficacy compared to unmodified IL-2 ([1]; Meth A, B16, and Pan-02, equitoxic doses): superior to that of unmodified IL-2
lethality ([1]; Q2D×5 schedule): ~100%
% TGI [2, 5]: 99.7%
Cures [2, 5]: 7/10
Deaths [2, 5]: 0/10
Δ Body Weight [2, 5]: 1.05
% TGI [2, 6]: 99.6%
Cures [2, 6]: 6/10
Deaths [2, 6]: 0/10
Δ Body Weight [2, 6]: 1.02
lethality, single i.v. dose ([3]; 12.5 mg/kg single i.v. dose): 0/5
% TGI ([3]; 25 mg/kg single bolus): 35%
Cures ([3]; 25 mg/kg single bolus): 0/3
toxicity and efficacy ([3]; IL-2 remaining in the body for longer periods): toxic at different doses without being very effective
toxicity of high single doses ([3]; high single doses): toxic
anti-tumor effect, computer-driven infusion versus single bolus PEG-IL-2 [4]: no statistically significant difference
improvement in potency (comparison of total doses delivered) ([4]; rough estimate versus IL-2): ~20 -fold
anti-tumor efficacy compared with IL-2 ([4]; versus IL-2 given for 5 or 10 days): significantly better than IL-2 given for 5 or 10 days

IL-2: Unmodified interleukin-2, recombinant or natural human; lymphokine, T cell growth factor
Number deaths/total treated ([1]; 9 mg/kg total): 0/10
T/C % ([1]; 9 mg/kg total, i.v. QD×9, day 21): 66.2%
Complete regressions ([1]; 9 mg/kg total, i.v. QD×9, day 35): 1/10
Number deaths/total treated ([1]; 45 mg/kg total): 0/15
T/C % ([1]; 45 mg/kg total, i.v. QD×9, day 21): 22.0%
Complete regressions ([1]; 45 mg/kg total, i.v. QD×9, day 35): 0/15
Number deaths/total treated ([1]; 90 mg/kg total): 0/10
T/C % ([1]; 90 mg/kg total, i.v. QD×9, day 21): 5.3%
Complete regressions ([1]; 90 mg/kg total, i.v. QD×9, day 35): 3/10
Number deaths/total treated ([1]; 112.5 mg/kg total): 1/10
T/C % ([1]; 112.5 mg/kg total, i.v. QD×9, day 21): 6.9%
Complete regressions ([1]; 112.5 mg/kg total, i.v. QD×9, day 35): 4/10 and 4/9
% TGI ([2]; 12.5 mg/kg IL-2 alone): 54.2%
Cures ([2]; 12.5 mg/kg IL-2 alone): 0/10
Deaths ([2]; 12.5 mg/kg IL-2 alone): 0/10
Δ Body Weight ([2]; 12.5 mg/kg IL-2 alone): 1.08
% TGI ([3]; 22.5 mg/kg single bolus): 21%
Cures ([3]; 22.5 mg/kg single bolus): 0/5
% TGI ([3]; 75 mg/kg single bolus): 56%
Cures ([3]; 75 mg/kg single bolus): 0/5
toxicity ([3]; doses of up to 75 mg/kg): not toxic
contribution of peak height alone to toxicity ([3]; mouse, in vivo): contributes little to toxicity
toxicity ([4]; 2.0 mg/kg/day): too toxic
anti-tumor effect, computer-driven infusion versus single bolus PEG-IL-2 [4]: no statistically significant difference
bolus versus continuous infusion ([4]; rat fibrosarcoma model): confirmed
amount of IL-2 deliverable with peak/trough profile, no incremental toxicity ([4]; same area under the blood clearance curve): 20 -fold
MTD ([4]; ×10): 1.0 mg/kg/day

From patent US5830452A, “Method for enhancing the anti-tumor therapeutic index of interleukin-2” (Chiron Corporation, priority 1994, dated 1998)
